Reference: article PMC9933440 (Crystal Growth & Design, 2022)

Assay: Solubility experiments in sodium phosphate buffer pH 6.5, 37 °C (HPLC)
Conditions: highest dissolved concentration
Experimental: Solubility experiments were conducted in sodium phosphate buffer solutions at pH 6.5 and 37 °C to simulate intestinal physiological conditions. For each experiment, an excess crystalline solid was sieved through a 300 μm sieve and introduced into a flask with a screw top containing 100 mL of the medium. The solution was stirred at 200 rpm using a magnetic stir bar for 48 h to reach the equilibrium state. […] After each sampling, the volume of the liquid removed from the suspension was not compensated. The withdrawn suspension was filtered through 0.2 μm nylon filters and diluted prior to high-performance liquid chromatography (HPLC) analysis. The solubility experiment for each crystal form was repeated in triplicate. After the last sample collection, the remaining solid material in the suspension was filtered, dried, and characterized by IR and PXRD.
A C18 HPLC column (YMC-Pack ODS-A column, 4.6 mm × 250 mm, 5 μm) with a flow rate of 1 mL min^–1 was employed, and the column temperature was set at 25 °C. The binary mobile phase consisted of acetonitrile and sodium phosphate buffer (pH 6.5) in a volume ratio of 25:75. The samples were diluted appropriately with the mobile phase, and the absorbance was measured at 347 nm.

Structure (SMILES): Cc1cnc(NC(=O)C2=C(O)c3ccccc3S(=O)(=O)N2C)s1 [MEL, meloxicam]
- dissolved MEL: 0.08 mg mL^–1 and 0.08 ± 0.02 mg mL^–1

“And” between values parts separate entries of the source, which are not always exact repeats. Identical values can stand only once.
